# scFv variants of Ab-91 (heavy chain) against a SARS-CoV-2 spike peptide

Reference: Engelhart et al. 2022, doi:10.1038/s41597-022-01779-4. File: FLAb, binding data.

The target is the same throughout: PDVDLGDISGINAS, from the HR2 region of SARS-CoV-2 spike.

Ab-91 is the parent antibody, in scFv form: VL, then a (GGGGS)3 linker, then VH. The light chain is unchanged in all variants.
VL: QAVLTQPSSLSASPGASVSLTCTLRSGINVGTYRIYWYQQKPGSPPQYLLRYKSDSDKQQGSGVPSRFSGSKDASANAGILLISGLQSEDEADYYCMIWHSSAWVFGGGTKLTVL
VH: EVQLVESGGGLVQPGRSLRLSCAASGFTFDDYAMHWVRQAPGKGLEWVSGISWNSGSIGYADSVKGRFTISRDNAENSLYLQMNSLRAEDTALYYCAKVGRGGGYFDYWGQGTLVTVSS

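AAYL51 was designed without a model: most single CDR substitutions and a random sample of double and triple ones. Affinity was read by AlphaSeq, a pooled yeast mating assay with surface-displayed partners. The frequency of each diploid, read from paired DNA barcodes, reflects how well the two displayed proteins bind. Each replicate has its own calibration line, from reference interactions of the BCL2 family. Each pool was mated in three replicate cultures.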

Changes read parent residue, position, new residue, counted from the first residue of the VH shown. The read-out is the apparent dissociation constant on a log10 scale (nM): the lower, the stronger. The mean shown is taken over the replicates in which the pair was detected. "nd" means that the variant was in the library but no mating with the target was seen in any replicate; the authors take this as a sign of poor binding, and no number exists. Nonspecific signal, from three strains lacking the peptide, appeared in 21% of pairings of library AAYL51, centred on 4.54 (5% of these signals below 3.26); values are not corrected for it. For each scFv, signals with the empty controls are counted beside the result.

changes	mean log10 Kd (nM)	seen in	empty controls
N54G S63G K65N	4.02	2/3	1/9
I51Q A61E	nd	0/3	2/9
D30W A61R G103R	2.94	3/3	2/9
F27W D30K D31E	3.18	3/3	6/9
D62M G100S G104A	3.74	2/3	3/9
F29M G50Q V64C	nd	0/3	1/9
I51H S55G F106M	nd	0/3	0/9
D31W I51E G103N	nd	0/3	0/9
G59V S63H G104Q	nd	0/3	0/9
F27D M34Q G50T	nd	0/3	1/9
S55F S63V V64Q	nd	0/3	0/9
D30Q D31C G103W	4.93	1/3	1/9
Y32F G100E G102L	4.65	2/3	1/9
V99F G100R G104Y	nd	0/3	2/9
A33F S55L G102H	4.43	1/3	2/9
F27R G56T S57T	5.41	3/3	3/9
F27V G59S D107L	nd	0/3	5/9
G26D H35V D107G	nd	0/3	0/9
D30C W53M Y105Q	0.72	3/3	5/9
D30R G103F Y105C	nd	0/3	0/9
D31Q G50L W53N	3.50	1/3	0/9
A33R G59W K65Y	nd	0/3	0/9
D30H S52L Y108I	nd	0/3	1/9
D31H G50V S57G	nd	0/3	4/9
S63G R101D	2.51	3/3	1/9
G26D I58V A61I	5.07	1/3	0/9
M34G H35S G56P	nd	0/3	0/9
G56A D62V K65P	3.95	2/3	1/9
N54K V99K G102D	4.76	1/3	3/9
T28A I51L S52V	nd	0/3	1/9
S55N K65D R101S	4.16	1/3	3/9
F27L A33D Y60R	nd	0/3	0/9
F27M Y105N	nd	0/3	2/9
S57D I58F Y105M	nd	0/3	0/9
F27S D31S Y60F	nd	0/3	0/9
H35Y S63C	5.08	1/3	4/9
S55M Y108T	3.01	3/3	1/9
S55P I58A F106H	3.11	2/3	0/9
S52A W53A G59K	3.83	1/3	0/9
D30A M34A R101H	3.00	3/3	3/9
D30Q S52I Y60G	nd	0/3	1/9
D30M S57G	1.92	3/3	2/9
F27W D31Q G59K	3.87	2/3	0/9
G56N Y60I S63I	4.84	2/3	0/9
F27K S55R D107L	4.13	1/3	0/9
S55N G56V Y105Q	nd	0/3	0/9
G56K S57N Y105Q	nd	0/3	0/9

From the list, the first 8 with no signal in any replicate:

changes,mean log10 Kd (nM),seen in,empty controls
I51Q A61E,nd,0/3,2/9
F29M G50Q V64C,nd,0/3,1/9
I51H S55G F106M,nd,0/3,0/9
D31W I51E G103N,nd,0/3,0/9
G59V S63H G104Q,nd,0/3,0/9
F27D M34Q G50T,nd,0/3,1/9
S55F S63V V64Q,nd,0/3,0/9
V99F G100R G104Y,nd,0/3,2/9